Experimental data taken from ChEMBL document CHEMBL6096694, “Repurposing of Agrochemicals as ATTRv Amyloidosis Inhibitors” (J Med Chem, 2025).

Assays:
Transthyretin [1] = molecular target: Transthyretin (Homo sapiens, UniProt P02766, V50M); test: Inhibition of acid-mediated TTR V30M mutant (unknown origin) aggregation preincubated for 30 mins followed by sodium acetate buffer at pH 5.2 addition and measured after 7 days by absorbance based turbidity assay
Transthyretin [2] = molecular target: T1, Transthyretin (Homo sapiens, UniProt P02766); test: Binding affinity to wildtype TTR (unknown origin) assessed as dissociation constant by ITC analysis
Transthyretin [3] = molecular target: T1, Transthyretin; conditions: dose 60.0 µM

`Oc1cc(Cl)ccc1Oc1ccc(Cl)cc1Cl` [TRICLOSAN] showed a Ki (Transthyretin [1]) of 18 µM, a Kd (Transthyretin [2]) of 0.484 µM and a deltaG (Transthyretin [3]) of -8.61 kcal/mol.
